From US10654807B2, “Toll-like receptor 8 agonists” (The University Of Kansas, priority 2013, dated 2020)

Biological target: T1, human TLR8 (Homo sapiens, UniProt Q9NR97)
T1 construct: HEK293 cells stably co-transfected with the appropriate hTLR, MD2, and secreted alkaline phosphatase (sAP); expressed in transfected cells; host or cells: HEK293 (HEK-Blue™)
T1 sequence (Q9NR97 27-1041): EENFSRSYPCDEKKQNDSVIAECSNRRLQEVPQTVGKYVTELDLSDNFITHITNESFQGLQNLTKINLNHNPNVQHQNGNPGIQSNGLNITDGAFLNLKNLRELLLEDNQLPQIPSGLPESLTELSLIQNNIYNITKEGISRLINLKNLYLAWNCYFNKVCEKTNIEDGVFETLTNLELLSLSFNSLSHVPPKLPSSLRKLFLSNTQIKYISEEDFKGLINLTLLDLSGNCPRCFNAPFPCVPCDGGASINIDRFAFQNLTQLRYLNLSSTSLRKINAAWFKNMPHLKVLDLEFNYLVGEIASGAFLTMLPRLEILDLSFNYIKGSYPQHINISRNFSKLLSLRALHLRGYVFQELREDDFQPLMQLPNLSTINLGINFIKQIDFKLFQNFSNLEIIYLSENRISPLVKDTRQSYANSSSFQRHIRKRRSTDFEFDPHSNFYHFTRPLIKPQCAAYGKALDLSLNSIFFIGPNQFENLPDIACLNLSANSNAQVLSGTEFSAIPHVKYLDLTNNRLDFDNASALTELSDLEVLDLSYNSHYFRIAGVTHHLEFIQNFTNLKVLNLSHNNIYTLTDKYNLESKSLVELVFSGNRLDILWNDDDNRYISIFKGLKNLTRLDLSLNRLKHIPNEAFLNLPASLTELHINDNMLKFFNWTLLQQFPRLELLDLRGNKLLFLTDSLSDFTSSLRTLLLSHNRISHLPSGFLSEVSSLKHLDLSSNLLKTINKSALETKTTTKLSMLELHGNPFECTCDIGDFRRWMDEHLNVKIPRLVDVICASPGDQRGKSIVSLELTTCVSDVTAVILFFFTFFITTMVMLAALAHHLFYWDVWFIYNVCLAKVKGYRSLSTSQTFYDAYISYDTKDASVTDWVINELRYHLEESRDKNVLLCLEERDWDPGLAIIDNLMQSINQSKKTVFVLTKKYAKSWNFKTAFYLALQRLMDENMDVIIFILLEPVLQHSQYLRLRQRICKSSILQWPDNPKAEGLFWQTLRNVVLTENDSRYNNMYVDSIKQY
Test: human TLR8-specific HEK-Blue reporter gene assay (NF-κB induction)
Assay type: cell-based

Compound: CCCCCc1cc2ccccc2nc1N [Compound 14b, 3-Pentylquinolin-2-amine]
- TLR8-agonistic potency relative to parent Compound 3 (fold greater potency than Compound 3): eight times greater
- TLR8-agonistic potency relative to Compound 6b (fold greater potency than the 3-butoxy analogue): ten-fold greater
- EC50 (human TLR8-specific reporter gene assays, Table 1, read-out: Agonistic Activity EC50 (μM) TLR8): 0.2 µM
